Earlier results as cited in patent publication US20200390774A1, “TRPA1 ANTAGONISTS FOR USE IN THE TREATMENT OF ATOPIC DERMATITIS” (GALDERMA RESEARCH & DEVELOPMENT, priority 2016, published 2020).

By UniProt entry, the sequences of proteins in these tests, tags left out.
UniProt Q8NER1, whole entry: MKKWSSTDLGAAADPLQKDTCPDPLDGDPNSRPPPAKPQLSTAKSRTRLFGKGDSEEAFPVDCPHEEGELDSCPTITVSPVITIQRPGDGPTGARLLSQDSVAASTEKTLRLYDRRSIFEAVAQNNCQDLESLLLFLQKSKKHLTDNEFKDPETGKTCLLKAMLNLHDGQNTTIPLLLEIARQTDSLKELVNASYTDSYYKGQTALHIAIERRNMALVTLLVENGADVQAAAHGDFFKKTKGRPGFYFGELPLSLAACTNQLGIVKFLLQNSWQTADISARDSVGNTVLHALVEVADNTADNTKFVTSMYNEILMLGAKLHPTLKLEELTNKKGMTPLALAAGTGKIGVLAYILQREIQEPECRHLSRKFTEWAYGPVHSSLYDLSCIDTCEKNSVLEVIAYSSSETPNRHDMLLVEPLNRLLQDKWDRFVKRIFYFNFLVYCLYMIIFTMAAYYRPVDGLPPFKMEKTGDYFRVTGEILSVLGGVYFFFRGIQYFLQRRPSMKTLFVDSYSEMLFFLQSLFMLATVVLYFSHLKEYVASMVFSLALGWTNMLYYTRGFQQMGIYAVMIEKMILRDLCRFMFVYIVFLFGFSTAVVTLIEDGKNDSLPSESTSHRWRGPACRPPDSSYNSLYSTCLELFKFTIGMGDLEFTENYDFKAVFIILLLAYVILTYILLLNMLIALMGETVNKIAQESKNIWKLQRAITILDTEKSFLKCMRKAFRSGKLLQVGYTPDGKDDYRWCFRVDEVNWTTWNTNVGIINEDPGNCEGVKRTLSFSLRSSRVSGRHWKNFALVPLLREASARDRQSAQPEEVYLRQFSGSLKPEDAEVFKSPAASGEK
UniProt Q8NET8, whole entry: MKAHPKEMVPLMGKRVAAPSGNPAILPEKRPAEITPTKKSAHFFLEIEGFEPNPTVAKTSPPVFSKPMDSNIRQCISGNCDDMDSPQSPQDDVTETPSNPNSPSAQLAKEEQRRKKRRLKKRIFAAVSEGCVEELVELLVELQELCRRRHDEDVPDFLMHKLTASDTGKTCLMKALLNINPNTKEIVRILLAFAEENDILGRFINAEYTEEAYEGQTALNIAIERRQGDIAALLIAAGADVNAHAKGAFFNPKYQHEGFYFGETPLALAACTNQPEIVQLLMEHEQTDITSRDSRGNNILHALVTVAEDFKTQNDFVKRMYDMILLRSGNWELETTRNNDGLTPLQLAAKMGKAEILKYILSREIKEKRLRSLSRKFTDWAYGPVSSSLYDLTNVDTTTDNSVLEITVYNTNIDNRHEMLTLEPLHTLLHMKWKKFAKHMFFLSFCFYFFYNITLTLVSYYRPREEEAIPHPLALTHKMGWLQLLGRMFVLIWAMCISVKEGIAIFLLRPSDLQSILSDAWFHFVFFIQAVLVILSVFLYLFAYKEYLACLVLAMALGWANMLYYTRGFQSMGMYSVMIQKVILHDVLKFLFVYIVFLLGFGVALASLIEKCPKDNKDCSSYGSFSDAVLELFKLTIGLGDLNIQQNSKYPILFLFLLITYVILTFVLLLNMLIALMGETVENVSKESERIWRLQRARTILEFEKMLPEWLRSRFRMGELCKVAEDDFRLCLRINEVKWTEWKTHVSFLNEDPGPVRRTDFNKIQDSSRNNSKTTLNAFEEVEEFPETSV

What was measured:
hTRPV1 = hTRPV1 (Homo sapiens, UniProt Q8NER1); conditions: read-out: IC50 hTRPV1; unit inferred; cited from earlier work
hTRPV3 = hTRPV3 (Homo sapiens, UniProt Q8NET8); conditions: read-out: IC50 hTRPV3; unit inferred; cited from earlier work

In the case of CC1CCCN1c1ncc(-c2cccc(NC(=O)Cn3cnc4c3c(=O)n(C)c(=O)n4C)n2)cn1 (centres unmarked), the IC50 (hTRPV1) is listed as > 100 µM and the IC50 (hTRPV3) is listed as > 300 µM.
